Data on 22 compounds can be found in patent publication US20260132129A1.

Amino acid sequences for entries named in this document (tags omitted).
UniProt P42336, whole entry H1047R: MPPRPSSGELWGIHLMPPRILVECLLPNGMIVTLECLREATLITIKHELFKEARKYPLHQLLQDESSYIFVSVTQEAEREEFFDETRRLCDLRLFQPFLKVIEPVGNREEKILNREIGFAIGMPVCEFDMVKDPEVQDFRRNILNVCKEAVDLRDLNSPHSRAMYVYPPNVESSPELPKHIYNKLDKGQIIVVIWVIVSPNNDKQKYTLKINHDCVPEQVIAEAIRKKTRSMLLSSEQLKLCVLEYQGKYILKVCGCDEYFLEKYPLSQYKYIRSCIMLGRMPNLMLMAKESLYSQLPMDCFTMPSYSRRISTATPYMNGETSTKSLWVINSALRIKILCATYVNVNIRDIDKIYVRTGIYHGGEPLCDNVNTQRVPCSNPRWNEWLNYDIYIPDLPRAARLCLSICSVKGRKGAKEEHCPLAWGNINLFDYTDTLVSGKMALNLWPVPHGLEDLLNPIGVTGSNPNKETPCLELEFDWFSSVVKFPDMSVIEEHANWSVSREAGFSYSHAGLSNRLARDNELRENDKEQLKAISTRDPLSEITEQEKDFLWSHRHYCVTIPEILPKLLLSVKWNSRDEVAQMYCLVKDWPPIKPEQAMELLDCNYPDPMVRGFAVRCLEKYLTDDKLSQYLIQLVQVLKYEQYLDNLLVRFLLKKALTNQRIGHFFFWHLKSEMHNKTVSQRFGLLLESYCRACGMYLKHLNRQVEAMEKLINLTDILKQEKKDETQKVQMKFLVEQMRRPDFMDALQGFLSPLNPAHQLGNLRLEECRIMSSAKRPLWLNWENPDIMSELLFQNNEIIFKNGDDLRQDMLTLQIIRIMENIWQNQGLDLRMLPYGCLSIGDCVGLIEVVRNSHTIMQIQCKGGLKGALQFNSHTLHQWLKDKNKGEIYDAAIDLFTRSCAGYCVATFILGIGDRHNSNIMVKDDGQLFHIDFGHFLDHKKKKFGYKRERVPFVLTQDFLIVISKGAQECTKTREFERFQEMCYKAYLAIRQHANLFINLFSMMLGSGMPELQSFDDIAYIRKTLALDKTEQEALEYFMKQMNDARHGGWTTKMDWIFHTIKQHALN
UniProt P27986, whole entry partner: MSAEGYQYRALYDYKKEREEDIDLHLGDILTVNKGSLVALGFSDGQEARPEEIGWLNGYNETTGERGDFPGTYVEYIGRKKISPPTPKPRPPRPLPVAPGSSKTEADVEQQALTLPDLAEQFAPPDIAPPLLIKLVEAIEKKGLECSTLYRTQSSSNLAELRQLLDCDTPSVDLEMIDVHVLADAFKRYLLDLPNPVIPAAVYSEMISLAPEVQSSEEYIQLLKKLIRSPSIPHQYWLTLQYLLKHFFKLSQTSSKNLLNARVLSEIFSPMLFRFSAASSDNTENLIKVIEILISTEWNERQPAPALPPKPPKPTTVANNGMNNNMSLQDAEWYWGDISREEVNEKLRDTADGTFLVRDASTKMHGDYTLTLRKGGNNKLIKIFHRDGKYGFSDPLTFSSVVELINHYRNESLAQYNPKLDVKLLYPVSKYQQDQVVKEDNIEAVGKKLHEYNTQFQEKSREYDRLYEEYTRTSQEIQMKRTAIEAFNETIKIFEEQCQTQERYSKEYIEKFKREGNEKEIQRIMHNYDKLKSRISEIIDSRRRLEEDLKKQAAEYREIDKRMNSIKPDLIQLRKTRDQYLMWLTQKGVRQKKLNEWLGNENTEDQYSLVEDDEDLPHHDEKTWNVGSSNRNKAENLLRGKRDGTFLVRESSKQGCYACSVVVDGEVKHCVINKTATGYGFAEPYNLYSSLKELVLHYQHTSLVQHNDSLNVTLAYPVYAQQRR

The experiment concerns the target PI3Kα H1047R (T47D cells) (Homo sapiens, UniProt P42336, H1047R). Put plainly: PI3Kα cellular assay: pAKT HTRF in T47D cells after EGF stimulation. In kind it is cell-based. The following applies: for IC50: read-out: T47D pAKT S473 HTRF IC50 (H1047R): Average IC50, T47D cells (PI3Kα H1047R), pAKT S473 HTRF. (In general: In TR-FRET formats the signal depends on donor and acceptor labels being close together.)

[1] abbreviates: 1 hr compound, 20 ng/ml EGF 10 min.
[2] abbreviates: selectivity T47D (H1047R) over SKBR3 (WT), pAKT HTRF.
Where [3] appears, read: selectivity of T47D (H1047R) over SKBR3 (WT) pAKT IC50.

SMILES strings stand for the structures. Read-outs that look alike come from different tables or passages of the source.

For `Cc1cc([C@@H](C)Nc2ccncc2C(=O)O)c2nc(N3CCOCC3)cc(=O)n2c1`, the IC50 under setting [1] was more than 2000 nM. In addition, the “T47D pAKT S473 HTRF IC50 (H1047R): T47D (H1047R) selectivity over SKBR3 (WT)” value under setting [2] was “C (C denotes ≤5-fold)”.
For `Cc1cc([C@@H](C)Nc2ccccc2C(=O)O)c2nc(-c3cccnc3)c(C3CC3)c(=O)n2c1`, for the setting “EGF stimulation”, the IC50 is less than 100 nM. Further, the “T47D pAKT S473 HTRF IC50 (H1047R): T47D (H1047R) selectivity over SKBR3 (WT)” value under setting [2] is reported as “A (A denotes >20-fold)”.
In the case of `Cc1cc([C@@H](C)Nc2ccccc2C(=O)O)c2nc(-c3ccc4c(c3)c(N(C)C)nn4C)c(C)c(=O)n2c1`, where the note is “EGF stimulation”, the IC50 was less than 100 nM. Under setting [3], the “T47D pAKT S473 HTRF IC50 (H1047R): T47D (H1047R) selectivity over SKBR3 (WT)” value is listed as “A (A denotes >20-fold)”.
The matching figures for `Cc1cc([C@H](C)Nc2ccccc2C(=O)O)c2nc(-c3ccc4c(c3)c(C)nn4C3CC3)c(C)c(=O)n2c1`: more than 2000 nM and “C (C denotes ≤5-fold)”.
For `Cc1cc([C@@H](C)Nc2ccccc2C(=O)O)c2nc(-c3ccc4[nH]c(=O)sc4c3)cc(=O)n2c1`, under setting [1], the IC50 is less than 100 nM. Further, the “T47D pAKT S473 HTRF IC50 (H1047R): T47D (H1047R) selectivity over SKBR3 (WT)” value under setting [2] is recorded as “A (A denotes >20-fold)”.
`Cc1cc([C@@H](C)Nc2cccc3c2C(=O)NS3(=O)=O)c2nc(N3Cc4ccccc4C3)cc(=O)n2c1`: the IC50 (EGF stimulation) was more than 2000 nM. Further, under setting [2], the “T47D pAKT S473 HTRF IC50 (H1047R): T47D (H1047R) selectivity over SKBR3 (WT)” value was “C (C denotes ≤5-fold)”.
Turning to `Cc1cc(C(C)Nc2ccccc2C(=O)O)c2nc(-c3ccc4c(c3)c(N)nn4C3CC3)cc(=O)n2c1` (stereo not shown) [Compound 870], the IC50 (EGF stimulation) lay within 100 to 500 nM. The “T47D pAKT S473 HTRF IC50 (H1047R): T47D (H1047R) selectivity over SKBR3 (WT)” value under setting [3] was “A (A denotes >20-fold)”.
As for `Cc1cc([C@H](C)Nc2ccccc2C(=O)O)c2nc(-c3ccnc(C)n3)c(C)c(=O)n2c1`, the IC50 (EGF stimulation) was in the range of 100 to 500 nM. For the same compound, under setting [2], the “T47D pAKT S473 HTRF IC50 (H1047R): T47D (H1047R) selectivity over SKBR3 (WT)” value is “A (A denotes >20-fold)”.
Taken in the same sequence, the figures for `Cc1cc([C@H](C)Nc2ccccc2C(=O)O)c2nc(-c3cnc(C)c(C(F)(F)F)c3)c(C)c(=O)n2c1` were 100 to 500 nM and “A (A denotes >20-fold)”.
In the case of `Cc1cc([C@@H](C)Nc2cccc(C#N)c2C(=O)O)c2nc(-c3ccc4c(c3)c(C)nn4C)cc(=O)n2c1`, the IC50 (EGF stimulation) is more than 2000 nM. Moreover, the “T47D pAKT S473 HTRF IC50 (H1047R): T47D (H1047R) selectivity over SKBR3 (WT)” value under setting [3] is on record as “C (C denotes ≤5-fold)”.
For `Cc1cc(C(C)Nc2ccccc2C(=O)O)c2nc(OCc3ccc(F)cc3)c(C)c(=O)n2c1` (stereo not shown), the IC50 (EGF stimulation) was in the range of 100 to 500 nM. Further, the “T47D pAKT S473 HTRF IC50 (H1047R): T47D (H1047R) selectivity over SKBR3 (WT)” value under setting [2] is “A (A denotes >20-fold)”.
On to `Cc1cc([C@H](C)Nc2ccccc2C(=O)O)c2nc(-c3cc(C)c4[nH]c(=O)[nH]c4c3)cc(=O)n2c1` (single isomer, unassigned), for which the IC50 under setting [1] lay in the range of 500 to 2000 nM.
As for `Cc1cc([C@H](C)Nc2ccccc2S(N)(=O)=O)c2nc(N3Cc4ccccc4C3)c(C)c(=O)n2c1`, the IC50 (EGF stimulation) is more than 2000 nM. Also, under setting [3], the “T47D pAKT S473 HTRF IC50 (H1047R): T47D (H1047R) selectivity over SKBR3 (WT)” value is reported as “C (C denotes ≤5-fold)”.
The matching figures for `Cc1cc([C@@H](C)Nc2ccccc2C(=O)O)c2nc(N3C[C@H]4C[C@@H](C5CCN(S(=O)(=O)N(C)C)CC5)C[C@H]4C3)cc(=O)n2c1`: 100 to 500 nM and “A (A denotes >20-fold)”.
In the case of `CNc1nc2cc(-c3cc(=O)n4cc(C)cc([C@@H](C)Nc5ccccc5C(=O)O)c4n3)ccc2o1`, the IC50 under setting [1] was 100 to 500 nM. Besides, the “T47D pAKT S473 HTRF IC50 (H1047R): T47D (H1047R) selectivity over SKBR3 (WT)” value under setting [2] is reported as “A (A denotes >20-fold)”.
On to `Cc1cc([C@H](C)Nc2ccccc2)c2nc(N3Cc4ccccc4C3)c(C)c(=O)n2c1`, for which, where the note is “EGF stimulation”, the IC50 was more than 2000 nM. Further, the “T47D pAKT S473 HTRF IC50 (H1047R): T47D (H1047R) selectivity over SKBR3 (WT)” value under setting [2] is “C (C denotes ≤5-fold)”.
With `Cc1cc(C(C)Nc2ccccc2C(=O)O)c2nc(-c3cc(F)cc4c3CC[C@H]4O)cc(=O)n2c1` (stereo partly shown), the IC50 (EGF stimulation) was in the range of 100 to 500 nM. For the same compound, the “T47D pAKT S473 HTRF IC50 (H1047R): T47D (H1047R) selectivity over SKBR3 (WT)” value under setting [3] is “A (A denotes >20-fold)”.
Taken in the same sequence, the figures for `Cc1cc([C@@H](C)Nc2ccccc2S(N)(=O)=O)c2nc(N3Cc4ccccc4C3)c(C3CC3)c(=O)n2c1` were 100 to 500 nM and “A (A denotes >20-fold)”.
With `COc1cc(-c2cc(=O)n3cc(C)cc([C@@H](C)Nc4ccccc4C(=O)O)c3n2)ccn1`, the IC50 under setting [1] lay within 100 to 500 nM. Moreover, the “T47D pAKT S473 HTRF IC50 (H1047R): T47D (H1047R) selectivity over SKBR3 (WT)” value under setting [2] was “A (A denotes >20-fold)”.
For `Cc1cc([C@H](C)Nc2ccccc2C(=O)O)c2nc(-c3ccc4c(n3)c(C)nn4C)c(C)c(=O)n2c1`, the IC50 (EGF stimulation) is more than 2000 nM. Under setting [3], the “T47D pAKT S473 HTRF IC50 (H1047R): T47D (H1047R) selectivity over SKBR3 (WT)” value is “C (C denotes ≤5-fold)”.
The matching figures for `Cc1cc(C(C)Nc2ccccc2S(N)(=O)=O)c2nc(-c3ccc4c(c3)c(C)cn4C3CCOCC3)c(C)c(=O)n2c1` (stereo not shown): 100 to 500 nM and “A (A denotes >20-fold)”.
Take `Cc1cc([C@H](C)Nc2ccccc2-c2ccnnc2)c2nc(N3Cc4ccccc4C3)cc(=O)n2c1`: the IC50 (EGF stimulation) was 100 to 500 nM. Further, the “T47D pAKT S473 HTRF IC50 (H1047R): T47D (H1047R) selectivity over SKBR3 (WT)” value under setting [3] was “A (A denotes >20-fold)”.

Broadly, the IC50 is the midpoint of a concentration-inhibition curve.
